# AlphaSeq binding of Ab-14 light chain variants to a spike HR2 peptide

From the AlphaSeq antibody data of Engelhart et al. 2022 (doi:10.1038/s41597-022-01779-4), copy in the FLAb collection.

Antigen: PDVDLGDISGINAS, a 14-residue peptide of the SARS-CoV-2 spike HR2 region.

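Phage display of a naive human antibody library on the peptide gave the parent. In library AAYL50, one, two or three CDR residues were substituted; doubles and triples were drawn at random. AlphaSeq pools MATa yeast showing the antibodies with MATalpha yeast showing the peptide. The frequency of each diploid, read from paired DNA barcodes, reflects how well the two displayed proteins bind. Read counts were normalised to the haploid input and turned into Kd by a linear fit to BCL2-family pairs of known affinity, for each replicate. Mating was done three times.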

Parent scFv Ab-14: VH joined to VL by a (GGGGS)3 linker. Changes lie in the light chain CDRs alone.
VH: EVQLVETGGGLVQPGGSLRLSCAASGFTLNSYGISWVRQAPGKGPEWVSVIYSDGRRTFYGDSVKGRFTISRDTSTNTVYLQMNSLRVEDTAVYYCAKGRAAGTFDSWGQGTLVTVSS
VL: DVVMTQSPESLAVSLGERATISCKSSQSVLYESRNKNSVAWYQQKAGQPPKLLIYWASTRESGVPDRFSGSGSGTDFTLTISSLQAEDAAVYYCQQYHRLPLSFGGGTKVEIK

The parent's light chain CDRs are KSSQSVLYESRNKNSVA, WASTRES, QQYHRLPLS; each variant's own CDRs replace them letter for letter.
Affinities are written as log10 Kd with Kd in nM; a lower number is a better binder.
Averages over replicates are reported, and they cover detected replicates only.
"n.d." means that the variant was in the library but no mating with the target was seen in that replicate; the authors take this as a sign of poor binding, and no number exists.

| CDR-L1 | CDR-L2 | CDR-L3 | replicates, log10 nM | mean, log10 nM | empty controls |
|---|---|---|---|---|---|
| KSSQSVLYESRNKSSVA | WASTRES | QQYVRLPLE | 2.34 1.89 2.38 | 2.20 | 0 of 9 |
| KSSQSVLYESRNFNSVK | WASTRES | QPYHRLPLS | 4.26 5.16 n.d. | 4.71 | 3 of 9 (4.71) |
| KSSQSVFYESRNKNSVA | WASTRES | QQYGRLPIS | 1.19 1.16 1.30 | 1.22 | 2 of 9 (3.77) |
| KSSQSVLYESDNKNSVA | WASTRPS | QQYHRLELS | 3.08 2.49 2.73 | 2.77 | 2 of 9 (3.58) |
| KSSQSVLSESRNKNSVG | MASTRES | QQYHRLPLS | 2.43 n.d. n.d. | 2.43 | 0 of 9 |
| KIRQSVLYESRNKNSVA | WASTRES | QQYHKLPLS | 0.00 0.31 0.14 | 0.15 | 8 of 9 (4.98) |
| KSSLSVLWESRNKNSVA | WASTRES | QKYHRLPLS | n.d. n.d. n.d. | n.d. | 0 of 9 |
| KSSQPVLSESRNKNSVA | WASTRMS | QQYHRLPLS | 0.77 1.26 1.89 | 1.31 | 0 of 9 |
| KSSQSVLYESRGKNSVA | WASTVES | WQYHRLPLS | n.d. n.d. n.d. | n.d. | 0 of 9 |
| KSSQSVLYENRNKNSVA | WAVTRES | QQYHRLPQS | n.d. n.d. n.d. | n.d. | 3 of 9 (4.43) |
| KSSQVVLYESRNKNSVA | WASARES | QQYHRIPLS | 3.51 n.d. n.d. | 3.51 | 0 of 9 |
| KSSNSVLYESRNKNSVA | WASTRES | GQYGRLPLS | 2.50 2.08 2.71 | 2.43 | 5 of 9 (3.89) |
| KNSQSVLYESENKNSVL | WASTRES | QQYHRLPLS | n.d. n.d. 5.87 | 5.87 | 3 of 9 (3.94) |
| KSSQSVLYESRNENSVA | MASTSES | QQYHRLPLS | 2.05 2.30 2.30 | 2.22 | 0 of 9 |
| KSTQSVLYESMNKNSVA | WASTRES | QQYHRLGLS | 1.83 1.84 2.38 | 2.02 | 1 of 9 (4.17) |
| KSTQSVLYESDNKNSVA | WASWRES | QQYHRLPLS | 1.01 1.19 1.44 | 1.21 | 3 of 9 (4.63) |
| KSWQSVLYESRNKNSVA | WAGTRES | NQYHRLPLS | n.d. 3.45 n.d. | 3.45 | 1 of 9 (3.95) |
| KSHQSVLYESRNKNSVS | WASCRES | QQYHRLPLS | n.d. n.d. n.d. | n.d. | 3 of 9 (4.29) |
| KSSQSVLYESRNKNSVA | WASTRRS | YQYHRLPLW | n.d. n.d. n.d. | n.d. | 2 of 9 (4.57) |
| QSSQSVLYESRNKNIVA | WASTQES | QQYHRLPLS | 2.82 n.d. n.d. | 2.82 | 0 of 9 |
| KSSQSGLYESRNKGSVA | WPSTRES | QQYHRLPLS | n.d. n.d. n.d. | n.d. | 3 of 9 (4.47) |
| QSSQMVLYESRNKNSVA | AASTRES | QQYHRLPLS | -0.07 0.20 0.01 | 0.04 | 2 of 9 (4.95) |
| KHSQSVLYESRNKNSVA | MASTRES | QVYHRLPLS | 0.98 1.10 1.12 | 1.07 | 1 of 9 (3.26) |
| KSSQSVLYESRNKNSVA | WASTREI | QQYHRLTLS | n.d. n.d. n.d. | n.d. | 0 of 9 |
| KYSQSVLYESRNKQSVA | GASTRES | QQYHRLPLS | -0.57 -0.17 -0.47 | -0.40 | 2 of 9 (4.45) |
| KSSQSVLYESRSKNSVA | WASTRDS | QQYHRLPLC | 0.83 0.90 0.92 | 0.88 | 0 of 9 |
| KSSDSVLYESRNKPSVE | WASTRES | QQYHRLPLS | n.d. n.d. n.d. | n.d. | 4 of 9 (4.41) |
| KSQQSVCYESRNKNSVA | WASTRES | QQYHWLPLS | n.d. n.d. n.d. | n.d. | 0 of 9 |
| KSSQRVLYESRNLNSVA | WASVRES | QQYHRLPLS | 1.50 1.50 1.53 | 1.51 | 1 of 9 (3.47) |
| ESSQSVLYESRNKNSVA | WAATRES | QQYHRLPLY | 3.28 3.13 3.81 | 3.40 | 1 of 9 (3.35) |
| KSSQSVLYVSRNKNSVG | WASTRES | QQYHYLPLS | 3.95 3.51 n.d. | 3.73 | 2 of 9 (3.61) |
| KSSQSVLYESRNKNSVA | WASTRPS | MQYHHLPLS | n.d. n.d. 4.75 | 4.75 | 2 of 9 (4.67) |
| KSSQSVEVESRNKNSVA | WASTRES | QQLHRLPLS | 1.46 1.49 1.60 | 1.52 | 4 of 9 (4.35) |
| KSSGSVLYELRNKNSVA | WASTRES | QQYHRLPLT | n.d. n.d. n.d. | n.d. | 1 of 9 (3.74) |
| KSSQVVLYESRNKNCVA | WASTRES | QQYHRNPLS | n.d. n.d. n.d. | n.d. | 0 of 9 |
| KMSQSVLYESRNKNSVA | WASTRES | EQYHREPLS | n.d. n.d. n.d. | n.d. | 0 of 9 |
| KLIQSVLYESRNKNSVA | WASTRES | QQYHRQPLS | 3.59 n.d. 3.30 | 3.44 | 0 of 9 |
| KSSQSVLYCSRNKNSVA | WASWRES | QPYHRLPLS | n.d. n.d. n.d. | n.d. | 1 of 9 (4.20) |
| KSSQSVLIESRNKNSVA | WATTRES | QQYARLPLS | 0.39 0.73 0.61 | 0.58 | 3 of 9 (3.94) |
| KSSGSGLYESRNKNSVA | WDSTRES | QQYHRLPLS | 4.03 3.85 3.92 | 3.93 | 4 of 9 (4.56) |
| HSSQSVLYEVRNKNSVA | WASQRES | QQYHRLPLS | n.d. n.d. n.d. | n.d. | 0 of 9 |
| KSMQSVLYESRNKNSVA | WASYRQS | QQYHRLPLS | n.d. n.d. n.d. | n.d. | 0 of 9 |
| KSSQSFLYESRNKNSVR | WASTRES | QQYHRLPLS | n.d. n.d. n.d. | n.d. | 0 of 9 |

Empty control strains, which show no peptide, gave a signal in 18% of pairings with library AAYL50; the median was 4.19 and 95% of these signals were weaker than 2.99. No background was subtracted. The control count says in how many pairings with the empty strains this scFv gave a signal, with their mean in brackets.